Experimental data reported in US20230357179A1, “RAF KINASE INHIBITORS AND METHODS OF USE THEREOF” (Deciphera Pharmaceuticals, LLC, priority 2021, published 2023).

Amino acid sequences for entries named in this document (tags omitted). A change or cut given only in a name is not applied to a line headed by its entry. Chains listed by the source or under a name are the forms on record and can include a tag or linker. Residues count along the entry.
UniProt P10398, 273-606 with tags or gaps Y301D/Y302D: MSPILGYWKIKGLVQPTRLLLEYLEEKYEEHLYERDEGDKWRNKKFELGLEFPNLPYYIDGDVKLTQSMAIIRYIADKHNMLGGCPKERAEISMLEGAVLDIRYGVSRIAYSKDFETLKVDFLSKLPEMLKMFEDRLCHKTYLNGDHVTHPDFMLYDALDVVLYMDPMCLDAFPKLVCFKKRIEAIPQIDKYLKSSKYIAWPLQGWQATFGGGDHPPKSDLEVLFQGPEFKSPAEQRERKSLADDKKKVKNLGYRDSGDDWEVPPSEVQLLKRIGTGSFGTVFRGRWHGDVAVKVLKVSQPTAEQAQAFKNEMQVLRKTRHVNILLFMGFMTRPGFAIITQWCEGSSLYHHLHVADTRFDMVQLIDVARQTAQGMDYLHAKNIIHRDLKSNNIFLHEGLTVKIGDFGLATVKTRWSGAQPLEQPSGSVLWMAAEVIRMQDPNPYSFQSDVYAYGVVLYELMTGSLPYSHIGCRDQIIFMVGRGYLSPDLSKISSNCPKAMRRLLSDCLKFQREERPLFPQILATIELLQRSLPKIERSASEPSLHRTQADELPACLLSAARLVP
UniProt P15056, 416-766: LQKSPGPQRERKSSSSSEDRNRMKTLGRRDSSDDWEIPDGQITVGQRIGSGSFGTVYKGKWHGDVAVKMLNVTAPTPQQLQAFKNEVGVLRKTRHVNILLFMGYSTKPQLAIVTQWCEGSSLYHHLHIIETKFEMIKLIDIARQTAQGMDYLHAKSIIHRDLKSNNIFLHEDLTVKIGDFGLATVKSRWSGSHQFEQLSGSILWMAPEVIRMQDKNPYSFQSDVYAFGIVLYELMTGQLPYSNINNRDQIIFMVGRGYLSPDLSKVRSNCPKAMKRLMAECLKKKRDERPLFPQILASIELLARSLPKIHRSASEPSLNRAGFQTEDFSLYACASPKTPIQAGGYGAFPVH
UniProt P15056, 416-766 V600E: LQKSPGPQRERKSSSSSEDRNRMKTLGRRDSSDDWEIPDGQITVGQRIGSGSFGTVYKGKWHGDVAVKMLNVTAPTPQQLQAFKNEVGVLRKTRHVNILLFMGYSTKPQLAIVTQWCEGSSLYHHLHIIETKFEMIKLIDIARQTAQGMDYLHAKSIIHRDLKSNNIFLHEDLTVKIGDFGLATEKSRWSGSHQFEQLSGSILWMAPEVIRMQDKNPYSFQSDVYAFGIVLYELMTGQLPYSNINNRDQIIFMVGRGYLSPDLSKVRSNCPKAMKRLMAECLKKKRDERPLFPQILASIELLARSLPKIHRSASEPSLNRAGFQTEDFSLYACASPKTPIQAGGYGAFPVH
UniProt P04049, 307-648 Y340D/Y341D: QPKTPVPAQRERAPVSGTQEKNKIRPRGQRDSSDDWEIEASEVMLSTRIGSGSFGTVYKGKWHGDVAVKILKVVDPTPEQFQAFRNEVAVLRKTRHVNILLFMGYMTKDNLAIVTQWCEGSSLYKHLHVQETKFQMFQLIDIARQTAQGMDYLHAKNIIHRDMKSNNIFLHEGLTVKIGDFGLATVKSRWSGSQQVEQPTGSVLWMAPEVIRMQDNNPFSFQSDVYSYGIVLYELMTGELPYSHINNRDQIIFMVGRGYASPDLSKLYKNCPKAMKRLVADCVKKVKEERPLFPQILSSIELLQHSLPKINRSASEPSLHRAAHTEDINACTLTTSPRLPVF

How the values were obtained:
A-Raf kinase = A-Raf kinase (Homo sapiens, UniProt P10398, Y301D/Y302D); test: Biochemical assay for A-Raf.1 (coupled pyruvate kinase/lactate dehydrogenase); conditions: read-out: ARAF.1 IC50
Description: Biochemical assay for A-Raf.1
(§1) Activity of A-Raf kinase (SEQ. ID NO. 1) was determined spectroscopically using a coupled pyruvate kinase/lactate dehydrogenase assay that continuously monitors the ATP hydrolysis-dependent oxidation of NADH (e.g., Schindler et al., Science, 2000, 289, 1938-1942). Assays were conducted in 384-well plates (100 μL final volume) using 5.55 nM A-Raf (Sigma), 1.5 units pyruvate kinase, 2.1 units lactate dehydrogenase, 1 mM phosphoenol pyruvate, 0.28 mM NADH, 30.1 nM MEK (SignalChem), and 1 mM ATP in assay buffer (100 mM Tris, pH 7.5, 15 mM MgCl2, 0.5 mM DTT, 0.1% octyl-glucoside, 0.002% (w/v) BSA, and 0.002% Triton X-100). Inhibition of A-Raf was measured by adding serial diluted test compound (final assay concentration of 1% DMSO). A decrease in absorption at 340 nm was monitored continuously for 6 h at 30° C. on a multi-mode microplate reader (BioTek). The reaction rate was calculated using the 4 to 5 h time frame. The reaction rate at each concentration of compound was converted to percent inhibition using controls (i.e., reaction with no test compound and reaction with a known inhibitor) and IC50 values were calculated by fitting a four-parameter sigmoidal curve to the data using Prism (GraphPad software).

B-Raf kinase = B-Raf kinase (Homo sapiens, UniProt P15056); test: Biochemical assay for B-Raf.1 (coupled pyruvate kinase/lactate dehydrogenase); conditions: read-out: BRAF.1 IC50
Description: Biochemical Assay for B-Raf.1
as §1, with “B-Raf” for “A-Raf”, “NO: 2)” for “NO. 1)”, “0.13” for “5.55”

C-Raf kinase = C-Raf kinase (Homo sapiens, UniProt P04049, Y340D/Y341D); test: Biochemical assay for C-Raf.1 (coupled pyruvate kinase/lactate dehydrogenase); conditions: read-out: CRAF.1 IC50
Description: Biochemical Assay for C-Raf.1
as §1, with “C-Raf” for “A-Raf”, “NO: 3)” for “NO. 1)”, “0.43” for “5.55”

B-Raf (V600E) kinase = B-Raf (V600E) kinase (Homo sapiens, UniProt P15056, V600E); test: Biochemical assay for B-Raf (V600E).1 (coupled pyruvate kinase/lactate dehydrogenase); conditions: read-out: BRAF V600E.1 IC50
Description: Biochemical Assay for B-Raf (V600E).1
Activity of B-Raf (V600E) (SEQ. ID NO: 4) kinase was determined spectroscopically using a coupled pyruvate kinase/lactate dehydrogenase assay that continuously monitors the ATP hydrolysis-dependent oxidation of NADH (e.g., Schindler et al., Science, 2000, 289, 1938-1942). Assays were conducted in 384-well plates (100 μL final volume) using 0.03 nM B-Raf (SignalChem), 1.5 units pyruvate kinase, 2.1 units lactate dehydrogenase, 1 mM phosphoenol pyruvate, 0.28 mM NADH, 30.1 nM MEK (SignalChem), and 1 mM ATP in assay buffer (100 mM Tris, pH 7.5, 15 mM MgCl2, 0.5 mM DTT, 0.1% octyl-glucoside, 0.002% (w/v) BSA, and 0.002% Triton X-100). Inhibition of B-Raf (V600E) was measured by adding serial diluted test compound (final assay concentration of 1% DMSO). A decrease in absorption at 340 nm was monitored continuously for 6 h at 30° C. on a multi-mode microplate reader (BioTek). The reaction rate was calculated using the 3 to 4 h time frame. The reaction rate at each concentration of compound was converted to percent inhibition using controls (i.e., reaction with no test compound and reaction with a known inhibitor) and IC50 values were calculated by fitting a four-parameter sigmoidal curve to the data using Prism (GraphPad software).

Which results are given for `Cc1ccc(NC(=O)NC2CC(C)(C)C2)cc1-c1cc(-c2ccnc(NS(C)(=O)=O)c2)nc(C2CC2)c1`?
IC50 (A-Raf kinase): > 1000 nM; IC50 (B-Raf kinase): 500 to 1000 nM; IC50 (C-Raf kinase): < 100 nM; IC50 (B-Raf (V600E) kinase): < 100 nM
